Laboratory results: PubChem BioAssay AID652260 (The Scripps Research Institute Molecular Screening Center, 2013)
The entries are a selection whose mix differs from that of the whole data set. The source made the active and inactive calls.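 The calls were made as follows: active = activation above its plate's cutoff, the mean activation of tested wells plus 3 SD (cut at about 7.9% in these data); inactive = the rest.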

assay: SMARCA2 (BRM) function activators, confirmation, cell-based, luminescence, triplicate (AID 652260); conditions: MG213 cells, MMTV-luciferase with dexamethasone, overnight, at 9.1 µM, stronger effect = higher value, DMSO wells 0%, reference activator 100%, MG213 cells expressing E1A, Rb sequestered
Procedure, shortened: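 System: MG213 cells (E1A-transduced) carrying MMTV-luciferase reporter; buffer or medium: 2.5% FBS medium with dexamethasone; probe or stimulus: 0.1 µM dexamethasone stimulus; compound: 9.1 µM single dose; timing: compound exposure 24 h at 37 °C after 1-day dexamethasone priming; signal: luciferase luminescence (OneGlo); control set: DMSO wells as low control, reference activator compound as high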

SMILES	activation
O=C(O)c1cccc(Nc2c([N+](=O)[O-])cc([N+](=O)[O-])cc2[N+](=O)[O-])c1	inactive: -2.3%
CN(C)C(=O)c1c([N+](=O)[O-])cc([N+](=O)[O-])cc1[N+](=O)[O-]	inactive: 6.43%
